Results taken from EP4847493A1, “THIAZOLIDINEDIONE HDAC INHIBITOR, PREPARATION METHOD THEREFOR AND USE THEREOF” (dated 2026).

Chains of the proteins cited; added tags and fusions are not shown.
UniProt Q13547, whole entry: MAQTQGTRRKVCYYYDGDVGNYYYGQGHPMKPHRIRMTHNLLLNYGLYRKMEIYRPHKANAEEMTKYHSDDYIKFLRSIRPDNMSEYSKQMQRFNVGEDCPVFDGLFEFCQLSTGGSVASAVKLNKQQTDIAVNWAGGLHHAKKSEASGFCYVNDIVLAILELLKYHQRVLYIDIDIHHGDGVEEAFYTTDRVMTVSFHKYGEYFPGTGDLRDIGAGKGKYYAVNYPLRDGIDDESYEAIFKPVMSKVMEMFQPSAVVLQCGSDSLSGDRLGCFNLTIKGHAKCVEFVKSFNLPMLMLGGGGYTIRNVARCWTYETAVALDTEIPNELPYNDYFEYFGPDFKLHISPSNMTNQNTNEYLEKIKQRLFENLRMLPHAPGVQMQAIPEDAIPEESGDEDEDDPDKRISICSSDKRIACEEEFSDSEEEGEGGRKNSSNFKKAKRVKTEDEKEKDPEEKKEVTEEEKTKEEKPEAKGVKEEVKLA

What was measured:
HDAC1 = HDAC1 (Homo sapiens, UniProt Q13547); assay: HDAC1 inhibition assay (described as ADP-Glo Luminescent Kinase Assay); conditions: read-out: HDAC1 inhibitory activity (IC50); 1 h incubation at room temperature; test concentrations 0.05 nM to 1.0 µM
A549 = assay: MTT anti-proliferative assay, A549; conditions: for IC50: read-out: Anti-proliferative activity (IC50, µM) against tumor cell lines, A549, A549, human non-small cell lung cancer cell line, MTT, 96 h incubation; for inhibitory activity against A549, in words: Table 2
DU145 = assay: MTT anti-proliferative assay, DU145
[1] = read-out: Anti-proliferative activity (IC50, µM) against tumor cell lines, DU145, DU145, human prostate cancer cell line, MTT, 96 h incubation

Row | IC50 (HDAC1) | IC50 (A549) | IC50 (DU145; [1]) | IC50 (DU145; read-out: inhibitory activity against DU145, DU145, text restatement of Table 2 in nM) | SMILES | inhibitory activity against A549, in words (A549)
1 | 0.0048 µM | 5.37 µM | 4.19 µM |  | COC(=O)c1ccc(/C=C2\SC(=O)N(CCCCCCC(=O)NO)C2=O)cc1 | 
2 | 0.0042 µM | 3.83 µM | 2.1 µM |  | O=C(CCCCCCN1C(=O)S/C(=C\c2cnc3ccccc3c2)C1=O)NO | 
3 | 0.0026 µM | 1.52 µM | 0.29 µM |  | Nc1ccc(/C=C2\SC(=O)N(CCCCCCC(=O)NO)C2=O)cc1 | 
4 | 0.0026 µM | 1.5 µM | 3.57 µM |  | COc1ccc(Br)cc1/C=C1\SC(=O)N(CCCCCCC(=O)NO)C1=O | 
5 | 0.0013 µM | 2.69 µM | 0.22 µM |  | O=C(CCCCCCN1C(=O)S/C(=C\c2cccc3cccnc23)C1=O)NO | 
6 | 0.031 µM | 2.7 µM | 3.64 µM |  | CCc1ccc(/C=C2\SC(=S)N(CCCCCCC(=O)NO)C2=O)cc1 | 
7 | 0.0025 µM | 6.44 µM | 0.86 µM |  | O=C(CCCCCCN1C(=O)S/C(=C\c2cccc(Cl)c2)C1=O)NO | 
8 | 0.0039 µM | 3.36 µM | 0.5 µM |  | CCOc1ccccc1/C=C1\SC(=O)N(CCCCCCC(=O)NO)C1=O | 
9 | 0.011 µM | 5.65 µM | 3.62 µM |  | O=C(CCCCCCN1C(=O)/C(=C/c2ccc(Cl)cc2)SC1=S)NO | 
10 | 0.0085 µM | 2.98 µM | 3.31 µM |  | Cc1ccc(/C=C2\SC(=S)N(CCCCCCC(=O)NO)C2=O)cc1 | 
11 | 0.0019 µM | 4 µM | 1.05 µM |  | COc1cc(Br)ccc1/C=C1\SC(=O)N(CCCCCCC(=O)NO)C1=O | 
12 | 0.0023 µM | 2.82 µM | 1.27 µM |  | COc1ccc(Cl)cc1/C=C1\SC(=O)N(CCCCCCC(=O)NO)C1=O | 
13 | 0.0025 µM | 0.55 µM | 6.56 µM |  | O=C(CCCCCCN1C(=O)S/C(=C\c2ccc3ccccc3n2)C1=O)NO | submicromolar-level
14 | 0.0036 µM | 1.6 µM | 1.09 µM |  | COC(=O)c1cccc(/C=C2\SC(=O)N(CCCCCCC(=O)NO)C2=O)c1 | 
15 | 0.0067 µM | 1.61 µM | 1.05 µM |  | O=C(CCCCCCN1C(=O)S/C(=C\c2ccc(Br)cc2)C1=O)NO | 
16 | 0.0033 µM | 3.62 µM | 1.64 µM |  | O=C(CCCCCCN1C(=O)S/C(=C\c2ccc(F)cc2)C1=O)NO | 
17 |  | 5.64 µM | 3.81 µM |  | CC(C)c1ccc(/C=C2\SC(=O)N(CCCCCCC(=O)NO)C2=O)cc1 | 
18 | 0.0024 µM | 2.51 µM | 0.53 µM |  | COc1ccc(/C=C2\SC(=O)N(CCCCCCC(=O)NO)C2=O)cc1Br | 
19 | 0.0042 µM | 1.26 µM | 0.16 µM |  | O=C(CCCCCCN1C(=O)S/C(=C\c2ccco2)C1=O)NO | 

Further lines, the compound ahead of its results:

Row | SMILES | IC50 (HDAC1) | IC50 (A549) | IC50 (DU145; [1]) | IC50 (DU145; read-out: inhibitory activity against DU145, DU145, text restatement of Table 2 in nM) | inhibitory activity against A549, in words (A549)
20 | COc1cc(C)ccc1/C=C1\SC(=O)N(CCCCCCC(=O)NO)C1=O | 0.0036 µM | 2 µM | 1.15 µM |  | 
21 | O=C(CCCCCCN1C(=O)S/C(=C\c2cccc(Br)c2)C1=O)NO | 0.005 µM | 3.67 µM | 1.29 µM |  | 
22 | O=C(CCCCCCN1C(=O)S/C(=C\c2cccnc2)C1=O)NO | 0.01 µM | 10.9 µM | 3.18 µM |  | 
23 | COc1cccc(/C=C2\SC(=O)N(CCCCCCC(=O)NO)C2=O)c1 | 0.0022 µM | 1.34 µM | 0.5 µM |  | 
24 | COc1cc(Cl)ccc1/C=C1\SC(=O)N(CCCCCCC(=O)NO)C1=O | 0.0044 µM | 5.96 µM | 1.97 µM |  | 
25 | COc1ccc(/C=C2\SC(=O)N(CCCCCCC(=O)NO)C2=O)cc1 | 0.0035 µM | 1.37 µM | 0.29 µM |  | 
26 | O=C(CCCCCCN1C(=O)S/C(=C\c2ccc3c(c2)OCO3)C1=O)NO | 0.0023 µM | 2.47 µM | 1.06 µM |  | 
27 | COc1ccc(/C=C2\SC(=O)N(CCCCCCC(=O)NO)C2=O)c(Br)c1 | 0.0041 µM | 2.28 µM | 0.97 µM |  | 
28 | O=C(CCCCCCN1C(=O)S/C(=C\c2ccccc2)C1=O)NO | 0.0032 µM | 3.1 µM | 0.51 µM |  | 
29 | O=C(CCCCCCN1C(=O)S/C(=C\c2ccc3ccccc3c2)C1=O)NO | 0.0034 µM | 2.44 µM | 1.39 µM |  | 
30 | COc1ccc(/C=C2\SC(=S)N(CCCCCCC(=O)NO)C2=O)cc1 |  | 3.09 µM | 2.46 µM |  | 
31 | COc1c(Cl)cccc1/C=C1\SC(=O)N(CCCCCCC(=O)NO)C1=O | 0.0032 µM | 3.78 µM | 2 µM |  | 
32 | O=C(CCCCCCN1C(=O)S/C(=C\c2ccc3c(c2)CCO3)C1=O)NO | 0.0019 µM | 2.08 µM | 9.18 µM |  | 
33 | O=C(CCCCCCN1C(=O)S/C(=C\c2ccc3ncccc3c2)C1=O)NO | 0.0018 µM | 10.1 µM | 2.4 µM |  | 
34 | O=C(CCCCCCN1C(=O)S/C(=C\c2ccc(Cl)cc2)C1=O)NO | 0.0021 µM | 4.71 µM | 0.84 µM |  | 
35 | COc1cc(F)ccc1/C=C1\SC(=O)N(CCCCCCC(=O)NO)C1=O | 0.0024 µM | 2.71 µM | 0.93 µM |  | 
36 | COc1c(Br)cccc1/C=C1\SC(=O)N(CCCCCCC(=O)NO)C1=O | 0.0028 µM | 1.56 µM | 0.74 µM |  | 
37 | O=C(CCCCCCN1C(=O)S/C(=C\c2ccc3cccnc3c2)C1=O)NO | 0.0056 µM | 1.07 µM | < 0.1 µM | < 0.1 µM | 
38 | O=C(CCCCCCN1C(=O)S/C(=C\c2ccccc2Br)C1=O)NO | 0.004 µM | 4.31 µM | 1.22 µM |  | 
39 | O=C(CCCCCCN1C(=O)S/C(=C\c2ccccc2Cl)C1=O)NO | 0.0061 µM | 5.36 µM | 1.23 µM |  | 
40 | COc1cccc(Cl)c1/C=C1\SC(=O)N(CCCCCCC(=O)NO)C1=O | 0.0034 µM | 7.52 µM | 3.26 µM |  | 
41 | O=C(CCCCCCN1C(=O)S/C(=C\c2cccs2)C1=O)NO | 0.0031 µM | 2.32 µM | 0.33 µM |  | 
42 | COc1ccc(/C=C2\SC(=O)N(CCCCCCC(=O)NO)C2=O)c(OC)c1 | 0.003 µM | 0.91 µM | 0.74 µM |  | submicromolar-level

Where two headings read alike, the source gives them in different places.
